Test results: patent publication US20140147411A1, “METHODS OF TREATING CANCER AND TESTING MUTATION ZYGOSITY RELATED THERETO” (U.S. GOVERNMENT represented by the UNITED STATES DEPARTMENT …, priority 2012, published 2014)

Tested on: A375 melanoma cells
Assay: Cell surface MHC class I, B2M and MHC class II by flow cytometry in A375 cells after interferon
Conditions: IFN-α2b alone

## IFN-α2b: type I interferon; INTRON A is recombinant Interferon alfa-2b
  MHCII expression: no impact on MHCII expression
